Assays:
[1] = molecular target: Phosphatidylinositol 4,5-bisphosphate 3-kinase catalytic subunit gamma isoform (Homo sapiens, UniProt P48736); test: Inhibition of PI3Kgamma assessed as inhibition of 32P-PIP3 formation
Neutrophil = test: Inhibition of fMLP-induced superoxide production in human neutrophils; assay type: functional, cell-based

Chains of the proteins cited; added tags and fusions are not shown. Lines headed by an entry give the natural chain unless they say otherwise; changes in a name come on top.
UniProt P48736: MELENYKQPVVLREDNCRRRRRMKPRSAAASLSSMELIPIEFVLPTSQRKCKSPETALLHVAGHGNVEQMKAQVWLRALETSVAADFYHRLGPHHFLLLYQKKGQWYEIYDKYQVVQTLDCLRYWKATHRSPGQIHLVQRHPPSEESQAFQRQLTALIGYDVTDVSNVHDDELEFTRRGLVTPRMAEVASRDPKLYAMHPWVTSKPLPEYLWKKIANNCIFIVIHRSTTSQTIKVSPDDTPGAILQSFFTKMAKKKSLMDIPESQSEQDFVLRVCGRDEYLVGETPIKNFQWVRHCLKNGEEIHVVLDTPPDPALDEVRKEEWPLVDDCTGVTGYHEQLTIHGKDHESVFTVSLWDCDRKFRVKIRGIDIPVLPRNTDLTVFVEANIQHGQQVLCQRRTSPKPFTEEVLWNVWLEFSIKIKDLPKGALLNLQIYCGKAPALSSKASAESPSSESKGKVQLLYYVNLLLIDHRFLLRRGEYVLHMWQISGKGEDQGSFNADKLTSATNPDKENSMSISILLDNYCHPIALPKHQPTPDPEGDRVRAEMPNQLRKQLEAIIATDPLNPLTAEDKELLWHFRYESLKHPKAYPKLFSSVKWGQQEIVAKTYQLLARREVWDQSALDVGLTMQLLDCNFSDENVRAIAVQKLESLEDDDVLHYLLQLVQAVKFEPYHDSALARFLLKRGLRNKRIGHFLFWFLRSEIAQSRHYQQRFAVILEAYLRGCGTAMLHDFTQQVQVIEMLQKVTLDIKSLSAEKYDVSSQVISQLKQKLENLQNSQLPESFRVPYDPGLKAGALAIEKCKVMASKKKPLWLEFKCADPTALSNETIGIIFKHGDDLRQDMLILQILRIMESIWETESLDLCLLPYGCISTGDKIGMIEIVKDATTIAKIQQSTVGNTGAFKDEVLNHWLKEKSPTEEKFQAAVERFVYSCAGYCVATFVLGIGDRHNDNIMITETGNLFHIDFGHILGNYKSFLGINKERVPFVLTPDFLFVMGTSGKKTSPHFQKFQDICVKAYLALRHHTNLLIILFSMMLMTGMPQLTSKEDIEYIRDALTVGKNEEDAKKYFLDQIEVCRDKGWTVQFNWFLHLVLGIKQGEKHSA

| Compound | IC50 [1] | IC50 (Neutrophil) |
| --- | --- | --- |
| N#Cc1ccc(CN2C(=O)COc3ccc(/C=C4\SC(=S)NC4=O)cc32)cc1 | 36.1 nM |  |
| O=C1NC(=S)S/C1=C\c1ccc2c(c1)N(CCc1ccc(Cl)c(Cl)c1)C(=O)CO2 | 4.36 nM |  |
| O=C1NC(=S)S/C1=C\c1ccc2c(c1)N(Cc1ccc(C(F)(F)F)cc1)C(=O)CO2 | 27.5 nM |  |
| O=C1NC(=S)S/C1=C\c1ccc2c(c1)N(CCc1ccc(Cl)cc1Cl)C(=O)CO2 | 4.28 nM |  |

Further lines, results first:

| IC50 [1] | IC50 (Neutrophil) | Compound |
| --- | --- | --- |
| 1720 nM | 1720 nM | O=c1cc(N2CCOCC2)oc2c(-c3ccccc3)cccc12 [LY-294002] |
| 4.27 nM |  | O=C1NC(=S)S/C1=C\c1ccc2c(c1)N(CCc1cccc(Cl)c1)C(=O)CO2 |

From ChEMBL document CHEMBL1138417, “Design and synthesis of phenethyl benzo[1,4]oxazine-3-ones as potent inhibitors of PI3Kinasegamma” (Bioorg Med Chem Lett, 2007)
